## scFv variants of Ab-14 (heavy chain) against a SARS-CoV-2 spike peptide

Reference: Engelhart et al. 2022, doi:10.1038/s41597-022-01779-4. File: FLAb, binding data.

Target peptide (SARS-CoV-2 spike, HR2 region): PDVDLGDISGINAS

Each scFv is VH, a 15-residue (Gly4Ser)3 linker, VL, as in the parent Ab-14, and differs from it in the CDRs of the heavy chain only.
VH: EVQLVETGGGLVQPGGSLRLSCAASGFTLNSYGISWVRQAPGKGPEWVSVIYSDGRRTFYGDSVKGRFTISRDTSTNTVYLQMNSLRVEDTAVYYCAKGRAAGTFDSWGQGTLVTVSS
VL: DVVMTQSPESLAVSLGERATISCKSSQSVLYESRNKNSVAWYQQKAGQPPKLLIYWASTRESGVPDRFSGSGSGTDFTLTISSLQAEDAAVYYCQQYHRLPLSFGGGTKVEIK

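The starting antibody came from a phage panning campaign against this peptide. The library (AAYL49) carries one to three amino acid substitutions per variant, with no insertions or deletions. AlphaSeq pools MATa yeast showing the antibodies with MATalpha yeast showing the peptide. After mating in shaken culture at 30 °C for 16 h, diploids were selected and their barcode pairs sequenced. Read counts were normalised to the haploid input and turned into Kd by a linear fit to BCL2-family pairs of known affinity, for each replicate. There are three technical replicates.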

Variants are written as CDR1, CDR2 and CDR3 of the heavy chain (limits as in the source). Parent: GFTLNSYGIS, VIYSDGRRTFYGDSVK, GRAAGTFDS. All variants listed here change S53 of the VH, counted from its first residue. The read-out is the apparent dissociation constant on a log10 scale (nM): the lower, the stronger. An entry "ND" has no value in the source: the pair was not observed among the diploids in that replicate. This suggests poor binding but is not conclusive. Empty control strains, which show no peptide, gave a signal in 15% of pairings with library AAYL49; the median was 4.06 and 95% of these signals were weaker than 2.83. No background was subtracted. For each scFv, signals with the empty controls are counted beside the result.

Variant GFTLNSYGIS / PIYCDGRRTFYGTSVK / GRAAGTFDS gave ND, ND, ND (controls 0 of 9). Variant GFGLNSYGIS / VIYNDGRRTFYGMSVK / GRAAGTFDS showed 3.25, ND, 3.73 (controls 0 of 9). Variant GFTLNSYPIS / VIYGDPRRTFYGDSVK / GRAAGTFDS gave ND, ND, 5.96 (controls 2 of 9). Variant GMTLNSYGIS / VIYVDDRRTFYGDSVK / GRAAGTFDS showed ND, ND, ND (controls 0 of 9). With GFTLNSYGIS / VIYTPGRRTEYGDSVK / GRAAGTFDS the result was ND, ND, ND (controls 1 of 9). With GFTLNSYGIR / VIYVDGRRTFYGDSVK / GRAAGTFWS the result was 3.97, ND, ND (controls 2 of 9). Variant GFTLNPYGIS / VIYMDGRRTFYGDSVK / GRASGTFDS showed ND, ND, ND (controls 0 of 9). Variant GFTLNSYGIS / PIYFDNRRTFYGDSVK / GRAAGTFDS showed ND, ND, ND (controls 0 of 9). Variant GFTLNSRGIS / VIYGDGRRTFYGDSVK / GFAAGTFDS gave 2.89, 3.71, ND (controls 1 of 9).

Variant GFTLNSYGIS / VIYLDGRRTFYGDSSK / QRAAGTFDS showed ND, 5.05, ND (controls 1 of 9). Variant GFTLNSYGIS / VIYFDGRRTQYGDSVK / GRFAGTFDS gave ND, ND, ND (controls 1 of 9). Variant GCTLNSYGIE / VIYFDGRRTFYGDSVK / GRAAGTFDS gave ND, ND, ND (controls 0 of 9). For GFTLNSYGIS / VIYCDGRRTFYLDSMK / GRAAGTFDS, the assay gave ND, ND, ND (controls 0 of 9). With GFTLNSYGIS / VIYQDHRRTFYGDSVK / GRAAGTFDP the result was ND, ND, ND (controls 0 of 9). Variant GFTLNSYGIS / VICCDGRRTFYGDSVK / GRAAGTFDS showed ND, 4.04, 4.34 (controls 0 of 9). For GFTLNSYGIS / VRYRDGRRTFYGDSVK / GRAAGTFTS, the assay gave ND, ND, ND (controls 0 of 9). Variant GFTLNSYGIS / VIYPDGRRTFYGDSVK / GRAAGTFEV gave ND, ND, 3.82 (controls 2 of 9). Variant IFTLNSYGIS / VIYQDGRSTFYGDSVK / GRAAGTFDS gave 6.18, 4.13, 4.72 (controls 9 of 9).

Variant GTTLNSYGIS / VIYCDGRRTFYGDSVK / GRFAGTFDS showed ND, 2.39, ND (controls 0 of 9). For GCTLNSYGIS / VIYNDGRRTFYGDSVC / GRAAGTFDS, the assay gave ND, 3.57, ND (controls 2 of 9). Variant GFTLNSYGIS / VIYTDGRRTDYGDSVK / GRAAGTFDS showed ND, ND, ND (controls 0 of 9). For GFTLNSYGVS / VIYNDGRRTFYGDSHK / GRAAGTFDS, the assay gave ND, ND, ND (controls 1 of 9). For LFTLNSYGIC / VIYRDGRRTFYGDSVK / GRAAGTFDS, the assay gave ND, ND, ND (controls 0 of 9). Variant GFTLNSYGIS / VIYTDGRRTFYGDSVK / GRAAGTFDS gave 2.59, 1.80, ND (controls 0 of 9). For GFTLNSYGIS / VMYTDGRRTFYGDSVK / GRAAGKFDS, the assay gave 3.30, 3.27, ND (controls 2 of 9). For GFTLNSYGIS / VIYFDGRRDFYGDSVK / GRAAGTFDQ, the assay gave 2.52, 2.01, 2.82 (controls 0 of 9). For GFTLNSYGIS / VIYPDGRTTFYGDSVK / ERAAGTFDS, the assay gave 5.17, 4.03, 3.85 (controls 3 of 9).

Variant GFTLNSYGIS / VIYFDGRRTFYGVSVK / GRAAITFDS showed 4.55, ND, 5.45 (controls 0 of 9). Variant GFTLNSYSIS / VIYWDGRRTFYGDSVK / GRAALTFDS gave 4.65, ND, ND (controls 1 of 9). Variant GWTLNSYGIS / VIYMDGRRTFYGDSVK / GRCAGTFDS gave ND, ND, ND (controls 0 of 9). With GFTLNSYGIS / VIYTPGRRTFYGDSVK / GRAAGTFDS the result was 5.06, 4.91, ND (controls 1 of 9). For GWTLMSYGIS / VIYRDGRRTFYGDSVK / GRAAGTFDS, the assay gave ND, 3.55, ND (controls 1 of 9). For EFTLNSYAIS / VIYHDGRRTFYGDSVK / GRAAGTFDS, the assay gave ND, ND, ND (controls 1 of 9). For GFVLNSYGIS / VIYYDGRRTFYGWSVK / GRAAGTFDS, the assay gave ND, ND, ND (controls 1 of 9). For GFFLNSYGIS / VIYFDGRRTFYGDSVK / GRAAGTFDL, the assay gave 2.52, 2.42, 2.61 (controls 3 of 9). For GFTLNSYGIS / VYYVDGRRTFYGDSRK / GRAAGTFDS, the assay gave ND, ND, ND (controls 0 of 9).

Variant GFTLNSYGIS / VIYTDGRVTFYGDSVK / GRAAGNFDS gave 4.56, 4.00, 4.50 (controls 8 of 9). With GFTLNSYGIS / VIYQDGRRTFYGDSVK / GRAAGTMDS the result was ND, ND, ND (controls 1 of 9). Variant GFTLNSYGIS / VIYDDGRRTFFGDSVK / GRSAGTFDS gave 4.63, ND, 3.88 (controls 3 of 9).

A selection of 6 entries from above:

Variant GFTLNSYGIS / VYYVDGRRTFYGDSRK / GRAAGTFDS gave ND, ND, ND (controls 0 of 9).
Variant GFTLNSYGIS / VIYLDGRRTFYGDSSK / QRAAGTFDS gave ND, 5.05, ND (controls 1 of 9).
Variant GFTLNSYGIS / VIYQDGRRTFYGDSVK / GRAAGTMDS gave ND, ND, ND (controls 1 of 9).
Variant GFFLNSYGIS / VIYFDGRRTFYGDSVK / GRAAGTFDL gave 2.52, 2.42, 2.61 (controls 3 of 9).
Variant GFTLNSYGIS / VIYTDGRRTDYGDSVK / GRAAGTFDS gave ND, ND, ND (controls 0 of 9).
Variant GFTLNSYGIS / VIYTPGRRTEYGDSVK / GRAAGTFDS gave ND, ND, ND (controls 1 of 9).